Read-outs that look alike come from different tables or passages of the source.
Biological target: PI3K (p110α/p85α) (Homo sapiens, UniProt P42336)
Test: PI3K activity assay (ADP Hunter Plus)
Format: biochemical
Settings: PI3Kα

By UniProt entry, the sequences of proteins in these tests, tags left out.
UniProt P42336, whole entry: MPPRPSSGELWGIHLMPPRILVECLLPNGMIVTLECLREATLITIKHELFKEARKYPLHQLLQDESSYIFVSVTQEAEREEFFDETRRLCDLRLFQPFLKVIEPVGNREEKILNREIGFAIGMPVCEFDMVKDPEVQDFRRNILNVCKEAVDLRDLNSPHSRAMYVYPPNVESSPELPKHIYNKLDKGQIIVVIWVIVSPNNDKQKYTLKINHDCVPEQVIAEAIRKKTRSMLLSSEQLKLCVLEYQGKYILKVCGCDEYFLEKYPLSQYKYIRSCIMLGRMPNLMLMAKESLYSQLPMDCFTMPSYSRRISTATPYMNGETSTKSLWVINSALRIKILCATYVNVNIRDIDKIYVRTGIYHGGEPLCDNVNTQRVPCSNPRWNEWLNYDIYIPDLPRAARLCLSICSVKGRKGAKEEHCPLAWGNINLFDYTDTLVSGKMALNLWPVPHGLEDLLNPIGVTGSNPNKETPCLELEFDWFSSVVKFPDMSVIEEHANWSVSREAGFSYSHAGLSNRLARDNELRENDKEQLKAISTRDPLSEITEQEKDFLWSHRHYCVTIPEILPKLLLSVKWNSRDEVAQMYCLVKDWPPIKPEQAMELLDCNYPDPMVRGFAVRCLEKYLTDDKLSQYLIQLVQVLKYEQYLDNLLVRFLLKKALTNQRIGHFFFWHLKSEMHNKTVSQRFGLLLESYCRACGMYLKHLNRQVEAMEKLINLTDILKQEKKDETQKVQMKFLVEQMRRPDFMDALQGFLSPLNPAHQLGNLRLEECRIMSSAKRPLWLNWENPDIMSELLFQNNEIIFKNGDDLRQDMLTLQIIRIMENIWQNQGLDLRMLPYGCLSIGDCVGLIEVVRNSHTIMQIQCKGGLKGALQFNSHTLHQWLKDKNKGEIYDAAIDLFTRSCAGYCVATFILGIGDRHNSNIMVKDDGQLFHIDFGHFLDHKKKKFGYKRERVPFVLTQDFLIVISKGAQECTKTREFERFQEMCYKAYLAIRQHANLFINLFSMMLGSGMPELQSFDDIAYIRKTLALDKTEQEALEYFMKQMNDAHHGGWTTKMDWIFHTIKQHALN
UniProt P27986, whole entry partner: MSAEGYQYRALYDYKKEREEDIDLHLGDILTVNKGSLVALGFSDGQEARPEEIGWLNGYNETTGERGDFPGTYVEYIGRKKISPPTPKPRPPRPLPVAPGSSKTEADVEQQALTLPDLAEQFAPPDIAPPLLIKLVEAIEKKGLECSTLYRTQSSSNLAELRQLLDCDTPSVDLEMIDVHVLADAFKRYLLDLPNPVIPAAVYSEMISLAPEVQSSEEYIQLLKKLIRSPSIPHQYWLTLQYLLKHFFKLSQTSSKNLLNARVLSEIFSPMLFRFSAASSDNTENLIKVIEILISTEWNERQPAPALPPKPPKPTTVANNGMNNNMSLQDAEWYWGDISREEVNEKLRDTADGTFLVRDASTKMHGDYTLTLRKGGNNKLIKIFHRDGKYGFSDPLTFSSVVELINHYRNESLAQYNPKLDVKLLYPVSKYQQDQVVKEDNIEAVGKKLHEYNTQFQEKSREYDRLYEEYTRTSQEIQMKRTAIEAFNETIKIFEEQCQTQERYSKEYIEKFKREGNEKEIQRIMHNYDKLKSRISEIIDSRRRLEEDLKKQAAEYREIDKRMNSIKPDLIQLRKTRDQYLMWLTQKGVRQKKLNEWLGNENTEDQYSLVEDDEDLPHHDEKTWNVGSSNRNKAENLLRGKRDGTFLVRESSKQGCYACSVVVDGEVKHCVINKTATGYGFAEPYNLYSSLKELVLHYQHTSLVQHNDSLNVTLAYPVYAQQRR

For c1cncc(-c2cn3c4c(nc3c(N3CCOCC3)n2)CCNC4)c1, the IC50 (read-out: PI3K α IC50 (semi-quantitative), class symbols) was less than 0.5 µM and the IC50 (read-out: PI3K α IC50, quantitative results) was 0.427 µM.

— patent US20130029967A1, “Fused Imidazo [3,2 - D] Pyrazines as P13 Kinase Inhibitors” (Centro Nacional de Investigaciones Oncologicas (CNIO), priority 2009, published 2013)
